Results published in US12617797B2, “Substituted pyrazolo [1,5-a]pyrimidines having multimodal activity against pain” (ESTEVE PHARMACEUTICALS, S.A., priority 2020, dated 2026).

Sequences of proteins named here, by UniProt entry; tags and fusion partners are left off. A change or cut given only in a name is not applied to a line headed by its entry. Residues count along the entry.
UniProt Q99720, whole entry: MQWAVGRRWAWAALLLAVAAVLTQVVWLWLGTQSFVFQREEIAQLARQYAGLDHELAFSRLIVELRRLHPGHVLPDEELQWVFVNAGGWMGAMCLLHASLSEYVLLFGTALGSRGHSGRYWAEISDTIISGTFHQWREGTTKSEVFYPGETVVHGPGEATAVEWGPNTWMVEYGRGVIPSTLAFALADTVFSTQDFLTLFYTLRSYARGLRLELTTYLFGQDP
UniProt P54289, 25-1103 limits assumed: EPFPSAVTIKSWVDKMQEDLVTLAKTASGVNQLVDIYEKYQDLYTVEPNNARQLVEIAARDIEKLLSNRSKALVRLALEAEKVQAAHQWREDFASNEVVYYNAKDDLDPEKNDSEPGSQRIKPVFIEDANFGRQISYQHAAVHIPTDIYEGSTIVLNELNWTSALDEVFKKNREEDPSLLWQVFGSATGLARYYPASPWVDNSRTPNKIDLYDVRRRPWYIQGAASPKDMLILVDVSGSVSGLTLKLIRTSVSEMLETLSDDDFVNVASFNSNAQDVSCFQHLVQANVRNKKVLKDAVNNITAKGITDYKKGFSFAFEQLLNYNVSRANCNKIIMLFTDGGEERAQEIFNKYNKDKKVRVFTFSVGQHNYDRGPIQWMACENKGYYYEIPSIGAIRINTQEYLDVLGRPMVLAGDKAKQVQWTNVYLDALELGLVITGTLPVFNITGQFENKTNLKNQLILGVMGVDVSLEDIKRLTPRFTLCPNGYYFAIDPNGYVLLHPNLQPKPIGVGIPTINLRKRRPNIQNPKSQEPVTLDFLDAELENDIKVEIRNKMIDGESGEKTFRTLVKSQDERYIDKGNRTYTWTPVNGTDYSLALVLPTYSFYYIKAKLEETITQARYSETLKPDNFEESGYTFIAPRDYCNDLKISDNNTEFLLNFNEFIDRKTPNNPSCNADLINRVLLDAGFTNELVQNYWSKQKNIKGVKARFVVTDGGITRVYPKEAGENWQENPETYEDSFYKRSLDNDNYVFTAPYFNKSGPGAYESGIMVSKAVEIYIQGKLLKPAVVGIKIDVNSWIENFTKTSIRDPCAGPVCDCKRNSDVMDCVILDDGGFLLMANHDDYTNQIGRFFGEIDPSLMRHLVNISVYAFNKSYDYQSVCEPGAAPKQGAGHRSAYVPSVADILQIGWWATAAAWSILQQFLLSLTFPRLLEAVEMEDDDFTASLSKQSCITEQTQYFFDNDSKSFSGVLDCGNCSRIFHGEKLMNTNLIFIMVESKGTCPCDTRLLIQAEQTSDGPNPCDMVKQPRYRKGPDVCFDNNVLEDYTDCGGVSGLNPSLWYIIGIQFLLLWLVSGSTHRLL

What was measured:
Human σ1 receptor = Human σ1 receptor (Homo sapiens, UniProt Q99720); test: Human σ1 receptor radioligand assay ([3H](+)-pentazocine binding, transfected HEK-293 membranes); conditions: read-out: σ-1 binding; binding to σ1 receptor expressed as Ki; + also covers inhibition between 1% and 50%
Experimental: Human σ1 Receptor Radioligand Assay
Transfected HEK-293 membranes (7 μg) were incubated with 5 nM of [^3H](+)-pentazocine in assay buffer containing Tris-HCl 50 mM at pH 8. NBS (non-specific binding) was measured by adding 10 μM haloperidol. The binding of the test compound was measured at either one concentration (% inhibition at 1 or 10 μM) or five different concentrations to determine affinity values (Ki). Plates were incubated at 37° C. for 120 minutes. After the incubation period, the reaction mix was then transferred to MultiScreen HTS, FC plates (Millipore), filtered and plates were washed 3 times with ice-cold 10 mM Tris-HCL (pH7.4). Filters were dried and counted at approximately 40% efficiency in a MicroBeta scintillation counter (Perkin-Elmer) using EcoScint liquid scintillation cocktail.

[1] = biological target: Human α2δ-1 subunit of Cav2.2 calcium channel (Homo sapiens, UniProt P54289); test: Human α2δ-1 subunit of Cav2.2 calcium channel assay ([3H]-gabapentin binding); conditions: read-out: α2δ binding; binding to the α2δ-1 subunit of voltage-gated calcium channels expressed as Ki; + also covers inhibition between 1% and 50%
Experimental: Biological Activity Pharmacological Study Human α2δ-1 Subunit of Cav2.2 Calcium Channel Assay
Human α2δ-1 enriched membranes (2.5 μg) were incubated with 15 nM of radiolabeled [^3H]-Gabapentin in assay buffer containing Hepes-KOH 10 mM, pH 7.4. NSB (non specific binding) was measured by adding 10 μM pregabalin. The binding of the test compound was measured at either one concentration (% inhibition at 1 or 10 μM) or five different concentrations to determine affinity values (Ki). After 60 min incubation at 27° C., binding reaction was terminated by filtering through Multiscreen GF/C (Millipore) presoaked in 0.5% polyethyleneimine in Vacuum Manifold Station, followed by 3 washes with ice-cold filtration buffer containing 50 mM Tris-HCl, pH 7.4. Filter plates were dried at 60° C. for 1 h and 30 μL of scintillation cocktail were added to each well before radioactivity reading. Readings were performed in a Trilux 1450 Microbeta radioactive counter (Perkin Elmer).

Ki (Human σ1 receptor): < 500 nM | Ki [1]: 500 to 5000 nM
Structure (SMILES): Cc1nn2c([C@H]3CCCN(Cc4ccc(Cl)cc4)C3)ccnc2c1CN(C)C
